Test results from patent US20240382450A1, “COMPOSITION OF B-CAR[…] A STATIN, AND METHODS OF USING SAME” (OrthoTreat Ltd., priority 2021, published 2024).

Key:
MUTZ-3 cells = details: MUTZ-3, lovastatin 1, 10 and 100 μM, 24 and 96 hours
Method: (§1) In vitro cytotoxicity & proliferation assay (basal) are being performed on human osteoblasts and stem cells monolayers.
As a human primary osteoclast cell is unable to proliferate, MUTZ-3, a human cell line model for osteoclast differentiation is also being used. MUTZ-3 cells are maintained in a 37° C. humidified incubator with 5% CO2 atmosphere. Cells are cultured in Dulbecco's modified Eagle's Medium (DMEM) supplemented with 10% foetal calf serum and 1% of the penicillin streptomycin stock solution.

[1] = tested on: Human primary osteoblast cells; details: osteoblasts, lovastatin 1, 10 and 100 μM, 24 and 96 hours
Method: as §1
Human primary osteoblast cells are maintained in a 37° C. humidified incubator with 5% CO2 atmosphere. Cells are cultured in Primary Osteoblast Media containing Primary Osteoblast Culture Supplement and 1% of the penicillin/streptomycin stock solution.

`CC[C@H](C)C(=O)O[C@H]1C[C@@H](C)C=C2C=C[C@H](C)[C@H](CC[C@@H]3C[C@@H](O)CC(=O)O3)[C@H]21` [lovastatin, reference compound] was tested, and the “effect of addition of lovastatin on β-caryophyllene's cytotoxicity” value (MUTZ-3 cells) was “did not affect” and the “effect of addition of lovastatin on β-caryophyllene's cytotoxicity” value [1] was “did not affect”.
